B2AR arrestin: recruits beta-arrestin to the human beta2-adrenergic receptor; P07550; beta-arrestin recruitment to beta2AR, cell-based reporter; Potency, µM (doses to about 46.1 µM), for the others: top-dose activation, usual class: activators; actives 0.02% (n = 330,000); AID 492947;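 further: potency means the concentration at half of the fitted maximal effect; 0% = DMSO controls and full agonism = EC100 isoproterenol or metaproterenol; nearly all actives have a fitted effect of over 65% in size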
Nrf2 ARE act: activates Nrf2 signaling | AREc32 ARE-luciferase reporter (MCF7-derived line), luminescence, 24 h | Potency, µM (series often up to 46.1 µM), for inactives: at the top dose activation, actives largely listed as activators | actives 0.31% (n = 410,000) | AID 624171; further: potency means the concentration at half of the fitted maximal effect; % of control where 0% means no effect; nearly all actives have a fitted effect of over 65% in size
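For detection, Steady-Glo was added and plates sat 30 min at RT; before that, AREc32_Fluc cells grown overnight in OPTI-MEM/5% FBS had been treated with 23 nL compound for 24 hr at 37 deg C.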
Nrf2 inh: blocks Nrf2 signaling; A549 ARE-Fluc reporter, luciferase luminescence, 18-24 h; Potency, µM (top dose mostly 46 µM), inactives show at the top dose activity change, negative = inhibition, actives largely listed as inhibitors; actives 2.1% (n = 360,000); further: potency means the concentration at half of the fitted maximal effect; on the % scale 0 is the no-effect control and ±100 the full control effect; nearly all actives have a fitted effect of over 60% in size
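In this cell-based qHTS, ARE-driven firefly luciferase in A549 cells reports Nrf2 activity; the luminescent signal after BugLite lysis is the measured value, with a prior CellTiter-Fluor read for cell health.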
A549 viability: kills or reduces viability of A549 cells in Nrf2 counter-screen. Potency, µM (titrated, usually from 46 µM), for inactives: at the top dose activity change, negative = cytotoxicity, usual class: inhibitors. A549 ARE-Fluc cells, CellTiter-Fluor viability, 18-24 h. actives 0.16% (n = 390,000). AID 504648; further: potency means the concentration at half of the fitted maximal effect; on the % scale 0 is the no-effect control and ±100 the full control effect
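A549 ARE-Fluc cells in 5% FBS OPTI-MEM, 5000 cells/well, rested 2 h then exposed to compounds in concentration-response for 18-24 h at 37 °C. Viability by CellTiter-Fluor fluorescence (Ex 405/Em 525) after 30 min; luciferase luminescence (BugLite, 15 min, RT) read afterwards.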
miR-21 FLuc: miR-21 reporter, rising signal. HeLa miR-21 FLuc reporter, luciferase, 48 h. Potency, µM (highest dose often 38.3 µM), for the others: at the highest dose reporter change, positive = more light. 340,000 tested, under 10 active. AID 2288; active = well fitted rising curve with a large enough effect; inconclusive = small, poorly fitted or top-dose-only effect; inactive = no such curve, though single readings can be large or run the other way;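 further: % of control where 0% means no effect; miR-21 action dims this reporter so a rising signal means less miR-21 action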
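HeLa cells endogenously expressing miR-21, stably carrying CMV-driven firefly luciferase with a downstream miR-21 binding site, 2000 cells/well. Titrations up to approximately 40 uM, 48 hours; luciferase luminescence read.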
* marks the source's active call; other numbers are inactive results; ? = inconclusive; · = not tested or not shown; [ ] = remark or other dose. In the library only some 2.2% were active in any assay of this set; here they are far more common. Unless noted, the call rests on the fitted dose curve; in most records, active means well fitted curve in the direction sought with a large enough effect; inconclusive means small, poorly fitted or top-dose-only effect, or another doubt; inactive means no such curve, though single readings can be large; an effect the other way counts as inactive or inconclusive.

SMILES | B2AR arrestin | Nrf2 ARE act | Nrf2 inh | A549 viability | miR-21 FLuc
Cc1nn(-c2cccc(C(F)(F)F)c2)c(=O)c2ccccc12 | -0.5% | 3.55µM* | 0.4% | 4.6% | -14.6%
CCO/C(=C/c1sc2ccc(OC)cc2[n+]1CCCS(=O)(=O)[O-])CC | -0.3% | -0.9% | 2.2% | -11.3% | -2.5%
CCC(/C=C1\Sc2ccc(OC)cc2N1CCO)=C\c1sc2ccc(OC)cc2[n+]1CCO | -0.6% | ? | ? | 20.6µM* | 23.3%
CCC(/C=C1\Sc2ccc(OC)cc2N1CC)=C\c1sc2ccc(OC)cc2[n+]1CCCS(=O)(=O)[O-] | -0.3% | -0.3% | 10.3µM* | ? | 8.6%
C=Cc1nc(Nc2cc(F)cc(F)c2)nc(NC2CCCC2)n1 | · | · | 10.4% | -2.9% | ·
CCc1cc2c(=O)c(-c3nc(C)cs3)c(CCCC(=O)O)oc2cc1O | -0.8% | 2.9% | 0.3% | 0.5% | -4.7%
CCc1cc2c(=O)c(-c3nc(C)cs3)coc2cc1OC(C)C(=O)NCCO (centres undefined) | -0.6% | 0.1% | 13µM* | -0.6% | -3.0%
CCOc1ccc(S(=O)(=O)N2CCN(C(=O)CCOc3ccccc3C)CC2)cc1 | -0.2% | 0.4% | 16.4µM* | -16.0% | ·
CC(=O)c1ccc(OCCCC(=O)N2CCN(S(=O)(=O)c3cc(C)ccc3C)CC2)cc1 | -0.3% | 4.9% | ? | 1.5% | ·
CC(=O)c1ccc(OCCCC(=O)N2CCN(S(=O)(=O)c3ccc(C(C)C)cc3)CC2)cc1 | 0.0% | -0.2% | 20.6µM* | -21.9% | ·
CCCN(CCC)C(=O)c1nn(C)c2c1CSc1ccc(C)cc1-2 | · | -0.2% | · | -0.8% | -2.1%
O=C1CCc2cc(S(=O)(=O)Nc3ccc(Cl)cc3)ccc2N1 | · | · | ? | -5.1% | ·

Ordered by SMILES length (falling): part of the list above
SMILES | B2AR arrestin | Nrf2 ARE act | Nrf2 inh | A549 viability | miR-21 FLuc
CC(=O)c1ccc(OCCCC(=O)N2CCN(S(=O)(=O)c3ccc(C(C)C)cc3)CC2)cc1 | 0.0% | -0.2% | 20.6µM* | -21.9% | ·
CCC(/C=C1\Sc2ccc(OC)cc2N1CCO)=C\c1sc2ccc(OC)cc2[n+]1CCO | -0.6% | ? | ? | 20.6µM* | 23.3%
CCCN(CCC)C(=O)c1nn(C)c2c1CSc1ccc(C)cc1-2 | · | -0.2% | · | -0.8% | -2.1%

(listing goes on)
SMILES | B2AR arrestin | Nrf2 ARE act | Nrf2 inh | A549 viability | miR-21 FLuc
CC1CCN(Cc2c(C(=O)N/N=C/c3ccc(C(F)(F)F)cc3)nnn2-c2nonc2N)CC1 | -0.3% | 0.5% | 25.9µM* | ? | -1.7%
O=C(CNC(=O)C1CCCC1)OC(C(=O)Nc1cc(C(F)(F)F)ccc1Cl)c1ccccc1 (centres undefined) | · | · | -12.5% | 8.8% | ·
Cc1nn(C)c(C)c1CNC(=O)c1cc2n(n1)C(C(F)(F)F)CC(c1cccs1)N2 (centres undefined) | -0.2% | -0.4% | 18.4µM* | -6.5% | 9.7%
COc1ccc(C2CC(C(F)(F)F)n3nc(C(=O)NCc4c(C)nn(C)c4C)c(Cl)c3N2)cc1 (centres undefined) | 4.3% | 3.7% | 20.6µM* | -9.2% | 22.2%
Cc1nn(C)c(C)c1CN(C)C(=O)c1nn2c(c1Br)NC(c1cccs1)CC2C(F)(F)F (centres undefined) | -0.4% | 3.7% | 8.2µM* | 1.2% | 0.8%
CCCn1c2ccccc2c2cnn(CC(=O)NCCc3cc(OC)ccc3OC)c(=O)c21 | · | -0.4% | 2.1% | 2.0% | -5.5%
COc1cc(Cn2c(=O)oc3ccc(C)cc32)ccc1OCCC(C)C | · | 3.6% | 20.6µM* | -7.7% | -1.5%
COc1ccc(C2Nc3ccc(Cl)cc3C(=O)N2Cc2ccccc2)cc1COc1ccc(NC(C)=O)cc1 (centres undefined) | · | · | ? | 0.0% | ·
COc1ccccc1N1CCN(Cc2cc(Br)c(O)c3ncccc23)CC1 | -0.2% | 0.7% | 18.4µM* | -8.1% | ?
COc1ccc(CN2CC(=O)N(c3ccc(C)cc3C)C2=S)cc1OC | 0.5% | 0.2% | 13µM* | -14.5% | -7.3%
COc1ccc(CN2CC(=O)N(c3ccccc3C)C2=S)cc1OC | -0.9% | 0.8% | ? | -2.7% | -5.7%
O=C(Nc1nnc(-c2ccccc2)s1)C1CCCN(C(=O)c2ccoc2)C1 (centres undefined) | · | · | 2.8% | 0.0% | ·
COc1ccc2c3c(c(=O)oc2c1)C1O[C@](c2ccsc2)(Cc2cc(C#N)ccc21)O3 | -0.6%[9.22 µM] | · | · | · | -5.9%[7.66 µM]
CCOCCCNC(=O)c1ccc(-n2c(-c3ccccc3)cc3c2CCC(C)C3)cc1 (centres undefined) | · | ? | ? | -3.2% | 16.4%
CCN(CC)CCNC(=O)c1ccc(-n2c(-c3ccccc3)cc3c2CCCC3)cc1 | · | 11.2µM* | ? | 1.8% | 26.5%
COCCCNC(=O)c1ccc(-n2c(-c3ccccc3)cc3c2CCCC3)cc1 | · | 12.6µM* | -10.4% | 2.4% | 3.1%
COc1cc2c(cc1OC)CN(c1ccc(-c3ccccc3OC)nn1)CC2 | 0.2% | 3.7% | 18.4µM* | -5.1% | -9.9%
COc1cc2c(cc1OC)CN(c1ccc3ccccc3n1)CC2 | -0.2% | 2.3% | -22.8% | 2.3% | 0.1%
Cc1cccc(Cn2nnc3c2C(=O)c2ccccc2C3=O)c1 | -0.3% | 0.1% | 20.6µM* | ? | 29.4%
COc1ccccc1-c1c(-c2ccc(OCC(=O)NN)cc2O)n[nH]c1C(F)(F)F | 1.6% | -0.8% | 11.1% | -6.6% | 5.9%
COc1ccc(-c2n[nH]c(C(F)(F)F)c2-c2cc3ccccc3o2)c(O)c1 | -0.2% | -0.8% | 16.4µM* | 16.4µM* | ?
N=c1ccn(CC(=O)c2ccc(-c3ccccc3)cc2)cc1 | -1.1% | 6.1% | 7.31µM* | ? | 21.7%
Cc1ccc(NS(=O)(=O)c2cccc(C(=O)O)c2)cc1C | · | · | ? | 4.4% | ·
COc1cc(NC(=O)c2ncn(-c3ccccc3)n2)cc(OC)c1 | · | 8.9% | ? | 0.4% | -58.4%
COc1ccc(Cl)cc1NC(=O)c1ncn(-c2ccccc2)n1 | · | 8.91µM* | ? | -5.6% | -18.2%
Clc1nnc(N2CCCCC2)c2ccccc12 | 0.1% | -0.5% | 16.4µM* | 0.9% | -38.4%
Cc1nc(N2CCCCCC2)c2ccccc2n1 | -0.7% | 1.2% | 18.4µM* | -10.1% | 19.4%
c1csc(-c2nnc(N3CCCCCC3)c3ccccc23)c1 | -0.5% | 12.6µM* | 8.7% | 0.1% | -35.0%
c1ccc2c(N3CCCCC3)nc(N3CCCC3)nc2c1 | -0.4% | -0.2% | -24.2% | -14.7% | 22.1%
Cc1ccc(Cl)cc1N(C)C(=O)c1sc2nc3n(c(=O)c2c1C)CCCC3 | · | 4.4% | -5.8% | 5.9% | 11.3%
COc1ccc(CCNC(=O)C2CCN(c3nc4ccccc4nc3C(F)(F)F)CC2)cc1OC | · | -0.9% | ? | -8.1% | 25.2%
Cc1ccc(Nc2nc(NCc3ccco3)nc3nccnc23)c(C)c1 | · | · | 4.6% | -0.4% | ·
CC(=O)c1cn(CCOc2cc(C)ccc2C)c2ccccc12 | -0.3% | 2.5%[9.22 µM] | 6.51µM* | -1.3% | ?
Cc1ccccc1OCCn1cc(C(=O)O)c2ccccc21 | -0.1% | -0.1% | -2.1% | -3.0% | -23.1%
Cc1ccc(C)c(OCCn2cc(C(=O)O)c3ccccc32)c1 | 0.1% | 0.3% | -12.4% | -7.6% | -8.7%
Cc1ccccc1OCCn1cc(/C(N)=N/O)c2ccccc21 | 0.7% | 3.0% | 23.1µM* | -22.9% | 24.8%
COC(=O)c1sccc1S(=O)(=O)N(CC(=O)NCc1ccc(F)cc1)c1ccc(Cl)cc1 | · | -0.3% | 29.4% | 10.4% | 11.4%
COc1ccc(C2c3c(n(CCCc4ccccc4)cnc3=N)Oc3ccc4ccccc4c32)cc1OC (centres undefined) | · | · | -2.9% | -12.6% | ·

Gathered by group: the entries above with two or more sulfur atoms.
SMILES | B2AR arrestin | Nrf2 ARE act | Nrf2 inh | A549 viability | miR-21 FLuc
CCO/C(=C/c1sc2ccc(OC)cc2[n+]1CCCS(=O)(=O)[O-])CC | -0.3% | -0.9% | 2.2% | -11.3% | -2.5%
CCC(/C=C1\Sc2ccc(OC)cc2N1CCO)=C\c1sc2ccc(OC)cc2[n+]1CCO | -0.6% | ? | ? | 20.6µM* | 23.3%
CCC(/C=C1\Sc2ccc(OC)cc2N1CC)=C\c1sc2ccc(OC)cc2[n+]1CCCS(=O)(=O)[O-] | -0.3% | -0.3% | 10.3µM* | ? | 8.6%
COC(=O)c1sccc1S(=O)(=O)N(CC(=O)NCc1ccc(F)cc1)c1ccc(Cl)cc1 | · | -0.3% | 29.4% | 10.4% | 11.4%
